Holding throughout (details): both partners purified
In one assay the target is T1, cyclophilin D (human, UniProt P30405 30-207).
T1 construct: cyclophilin D (cypD), human, recombinant; Held on the chip through an immobilised antibody against cypD; also called cypD; source: bought: Fitzgerald, USA (human, recombinant)
As to the kind of experiment: SPR; cypD held on immobilised Ab(cypD); 100 nM 17β-HSD10 flowed for 7 min; 10 mM HEPES, 200 μg/ml BSA, 5 mM Na+, pH 7.4 or 7.8, with K+ (up to 140 mM), Mg2+ or Ca2+ (up to 2.5 mM) alone or K+ and Mg2+ combined; 25 °C; reference channel without cypD. (SPR reads the build-up and loss of mass on a sensor chip optically.)

The chains behind the UniProt entries cited, without tags or fusion partners. Residues count along the entry.
UniProt P30405, 30-207: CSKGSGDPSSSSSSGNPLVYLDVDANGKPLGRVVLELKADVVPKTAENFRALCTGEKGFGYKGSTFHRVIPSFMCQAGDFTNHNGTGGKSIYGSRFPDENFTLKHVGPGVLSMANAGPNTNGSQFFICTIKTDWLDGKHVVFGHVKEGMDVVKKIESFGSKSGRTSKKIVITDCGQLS

The target of another assay is T2, amyloid-β peptide 1–42 (human, UniProt P05067 672-713).
T2 construct: amyloid-β peptide, residues 1-42 (42 aa), human, cut product of the amyloid precursor protein; numbers count on: the Aβ peptide; Incubated at 37 °C before injection; the authors take it to form oligomers of a size that was not measured; also called Aβ1–42; Aβ_(1–42); source: synthetic peptide; bought: AnaSpec, USA
As to the kind of experiment: SPR; cypD held on immobilised Ab(cypD); 17β-HSD10 (100 nM), Aβ1–40 or Aβ1–42 (50-1000 nM, mostly 500 nM) or their mixtures, incubated at 37 °C beforehand (1 hour; or Aβ alone 0-180 min, then 10 min with 17β-HSD10), flowed for 7 or 10 min; HEPES_FINAL (10 mM HEPES, 200 μg/ml BSA, 5 mM Na+, 15 mM K+, 0.1 mM Mg2+, pH 7.4); 25 °C.

A further assay deals with T3, amyloid-β peptide 1–40 (human, UniProt P05067 672-711).
T3 construct: amyloid-β peptide, residues 1-40 (40 aa), human, cut product of the amyloid precursor protein; numbers count on: the Aβ peptide; The authors take it to stay monomeric under the conditions used; also called Aβ1–40; Aβ_(1–40); source: synthetic peptide; bought: AnaSpec, USA
The description is as above.

B1: 17beta-hydroxysteroid dehydrogenase type 10 (enzyme, human, UniProt Q99714 1-261, looked up)
chain: MAAACRSVKGLVAVITGGASGLGLATAERLVGQGASAVLLDLPNSGGEAQAKKLGNNCVFAPADVTSEKDVQTALALAKGKFGRVDVAVNCAGIAVASKTYNLKKGQTHTLEDFQRVLDVNLMGTFNVIRLVAGEMGQNEPDQGGQRGVIINTASVAAFEGQVGQAAYSASKGGIVGMTLPIARDLAPIGIRVMTIAPGLFGTPLLTSLPEKVCNFLASQVPFPSRLGDPAEYAHLVQAIIENPFLNGEVIRLDGAIRMQP
notes: 17beta-hydroxysteroid dehydrogenase type 10 (17β-HSD10), human, recombinant; the oligomeric state was not measured; also called 17β-HSD10; 17beta-hydroxysteroide dehydrogenase 10; source: bought: Fitzgerald, USA (human, recombinant)
For B1, the “binding efficiency with combined Mg2+ (0.25 mM) and K+ relative to K+ only” value with cyclophilin D is approximately 2 fold. In addition, the binding result with amyloid-β peptide 1–42 and in the assay with amyloid-β peptide 1–40 was “binds” throughout.
